The assay addresses Prothrombin (Bos taurus, UniProt P00735). Kind of assay: In vitro Enzyme Inhibitory activity measured against Thrombin.

Data on 1 compound can be found in ChEMBL document CHEMBL1128179, “Structure-activity study of tripeptide thrombin inhibitors using alpha-alkyl amino acids and other conformationally constrained amino acid substitutions” (J Med Chem, 1995).

The IC50 is the midpoint of a concentration-inhibition curve. Lower therefore signals higher potency. For `CC(C)(C)OC(=O)N[C@@H](C(=O)N1CC[C@H]1C(=O)N[C@H](C=O)CCCN=C(N)N)c1ccccc1`, the IC50 was 13 nM.
